# This is a selection; strong and weak results do not stand in their true shares. Some salts or complexes appear as unconnected parts, following the source record. The source made the active and inactive calls. Rule as the data show it: active = activity change below about -25%; inactive = the rest.
# Sequences of proteins named here, by UniProt entry; tags and fusion partners are left off.
# UniProt Q92551, whole entry: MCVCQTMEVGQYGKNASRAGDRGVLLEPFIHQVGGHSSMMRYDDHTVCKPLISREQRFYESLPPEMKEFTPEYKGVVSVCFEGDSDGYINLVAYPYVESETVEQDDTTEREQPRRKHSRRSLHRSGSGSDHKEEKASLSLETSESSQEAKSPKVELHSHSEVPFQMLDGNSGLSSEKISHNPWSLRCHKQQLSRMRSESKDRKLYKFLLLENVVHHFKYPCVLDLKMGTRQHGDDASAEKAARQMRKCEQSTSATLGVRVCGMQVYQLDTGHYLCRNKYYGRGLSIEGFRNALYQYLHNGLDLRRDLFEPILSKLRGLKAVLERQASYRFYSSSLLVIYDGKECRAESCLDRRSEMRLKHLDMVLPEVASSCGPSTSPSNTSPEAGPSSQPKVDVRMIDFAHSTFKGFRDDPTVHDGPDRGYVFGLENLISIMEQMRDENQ
# Biological target: Inositol hexakisphosphate kinase 1 (Homo sapiens) (UniProt Q92551)
# Test: Primary qHTS assay for small molecule inhibitors of Inositol hexaphosphate kinase 1 (IP6K1); also: series mostly up to about 58 µM
# Conditions: ADP-Glo luminescence, 2 h, active compounds read low
# Text: Assay Provider: Huijun Wei, M.S., Ph.D. School of Medicine, Johns Hopkins University, Baltimore, MD Inositol hexakisphosphate kinases (IP6Ks) catalyze pyrophosphorylation of inositol hexakisphosphate (IP6) into inositol 5-diphospho-1,2,3,4,6-pentakisphosphate (IP7), which is involved in numerous areas of cell physiology including glucose homeostasis, blood coagulation and neurological development. Inhibition of IP6Ks may be effective for the treatment of Type II diabetes, thrombosis, and psychiatric disorders. We performed a quantitative high throughput screen (qHTS) of 158,410 compounds for IP6K1 inhibitors using ankinase activity ADP-Glo Max assay. […] Medicinal chemistry SAR efforts in three chemical series identified potent IP6K1 inhibitors, which were further validated in an orthogonal LC-MS IP7 analysis.
# PROTOCOL TABLE SEQUENCE No. (e.g., 1, 2, 3, etc.); […] (e.g., Cells, Incubation, Reagent, etc.); VALUE and DESCRIPTION. 1. Reagent, 3 uL of 1.3 mM ATP and 130 uM IP6 mixture in assay buffer was dispensed to a white, 1536-well assay plate. 2. Compound, 23 nL of compounds of the top two doses (57.5 uM and 19.1 uM final concentration) of the libraries were dispensed into the mixture using the Kalypsis pintool. 3. Reagent, 1 uL of 2.4 uM IP6K1 was dispensed to the assay plates. 4. Incubation, 2 hr incubation at room temperature. 5. Reagent, 2 uL of ADP-Glo reagent was added to the wells. 6. Incubation, 1 hr incubation at room temperature. 7. Reagent, 4 uL or ADP-Glo substate was added to the wells. 8. Incubation, 45 min incubation at room temperature. 9. Detection, luminescence signal was detected using the ViewLux microplate imager (PerkinElmer).
# % is scaled to controls: 0 for no effect and ±100 for the full control effect.
row,Compound,activity change
1,O=[N+]([O-])c1cccc([N+](=O)[O-])c1,inactive: -12.5%
2,C/C1=C2N=C(/C=C3N=C(/C(C)=C4\N=C(C(CC(N)=O)C4(C)CCC(=O)NCC(C)OP(=O)([O-])OC4C(CO)OC(n5cnc6cc(C)c(C)cc65)C4O)C4(C)N=C1C(CCC(N)=O)C4(C)CC(N)=O)C(CCC(N)=O)C\3(C)C)C(CCC(N)=O)C/2(C)CC(N)=O.[C-]#N.[Co] (stereo unspecified),inactive: 7.09%
3,OCCSCCO,inactive: 31.2%
4,C/C1=C2N=C(/C=C3N=C(/C(C)=C4\[N-][C@@](C)([C@@H]5N=C1[C@](C)(CCC(=O)NC[C@@H](C)OP(=O)([O-])O[C@H]1[C@@H](O)[C@@H](n6cnc7cc(C)c(C)cc76)O[C@@H]1CO)[C@H]5CC(N)=O)[C@@](C)(CC(N)=O)[C@@H]4CCC(N)=O)[C@@](C)(CC(N)=O)[C@@H]\3CCC(N)=O)C(C)(C)[C@@H]/2CCC(N)=O.[C-]#N.[Co+3],inactive: -6.11%
5,Cc1cccc([N+](=O)[O-])c1[N+](=O)[O-],inactive: -11%
6,CCOP(=O)(CC)Oc1ccc([N+](=O)[O-])cc1 (stereo unspecified),inactive: -5.99%
